This note sets out measurements from patent US11279712B2, “Macrocyclic compounds that inhibit MCL-1 protein” (AMGEN INC., priority 2017, dated 2022).

By pIC50 is commonly meant −log10 of the IC50, conventionally taken in molar units.

pIC50: −log10 of the molar value.

For this assay, the system named is OPM-2 human multiple myeloma cell line. The assay is described as follows: Cell Viability Assay (OPM-2 10 FBS). The note with it: read-out: OPM-2 10% FBS IC50 IP, OPM-2 cells, 16 h, CellTiter-Glo. The procedure: Cell Viability Assay (OPM-2 10 FBS)
The human multiple myeloma cell line, OPM-2, was cultured in complete growth medium containing RPMI 1640 and 10% fetal bovine serum (FBS). Cells were seeded into 384-well plates at 3000 cells/well density in complete growth medium containing 10% FBS, and incubated for 16 h with serially diluted test compounds in a 37° C. incubator with 5% CO2. Cell viability was tested using CellTiter-Glo® assay (Promega, Madison, Wis.) according to the manufacturer recommendations. Luminescence was determined using an EnVision® Multilabel plate reader 25 min after the addition of detection reagent. IC50 values were then calculated with Xlfit using a logistical 4-parameter fit model in GraphPad Prism (GraphPad Software, San Diego, Calif.) or in Genedata Screener® (Genedata, Basel, Switzerland).

For `C[C@H](O)[C@@H]1CCC[C@H](C)[C@@H](C)S(=O)(=O)NC(=O)c2ccc3c(c2)N(C[C@@H]2CC[C@H]21)C[C@@]1(CCCc2cc(Cl)ccc21)CO3`, the pIC50 is 6.52.

As to `COC[C@H]1CCC[C@H](C)[C@@H](C)S(=O)(=O)NC(=O)c2ccc3c(c2)N(C[C@@H]2CC[C@@H]12)C[C@@]1(CCCc2cc(Cl)ccc21)CO3` (single isomer, unassigned) [Example 80], the pIC50 was 6.01.
